Literature values as cited in patent publication US20150164812A1, “Porous Tablets As Carriers For Liquid Formulations” (Veloxis Pharmaceuticals A/S, priority 2004, published 2015).

Settings: Table 1 Poorly-Soluble Drug Candidates

Question: Which “Solubility In Water” value does the source give for Medroxyprogesterone here?
Answer: Insoluble
